## Measured affinities in a library of Ab-14 heavy chain variants

Target peptide (SARS-CoV-2 spike, HR2 region): PDVDLGDISGINAS

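The parent was found by panning a naive human phage display library on the peptide. Designed CDR sequences, proposed from the first random library and measured here. Several design methods are mixed in this list. The scFvs were displayed on barcoded MATa yeast, the peptide on MATalpha yeast. Binding brings cells together so that they mate, and sequencing counts the barcode pairs among the diploids. The ratio of observed to expected reads was calibrated, replicate by replicate, on BCL2-family standards whose Kd was known from biolayer interferometry. There are six technical replicates.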

Parent: Ab-14, a human scFv built as VH, a (GGGGS)3 linker, VL. Only the CDRs of the heavy chain vary.
VH: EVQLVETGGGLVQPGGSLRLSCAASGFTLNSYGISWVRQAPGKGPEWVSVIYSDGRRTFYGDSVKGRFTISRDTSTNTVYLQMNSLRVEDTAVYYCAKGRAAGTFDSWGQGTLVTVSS
VL: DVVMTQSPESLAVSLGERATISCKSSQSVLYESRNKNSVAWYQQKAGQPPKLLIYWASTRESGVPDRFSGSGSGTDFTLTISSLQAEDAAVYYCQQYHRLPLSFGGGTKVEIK

Variants are written as CDR1, CDR2 and CDR3 of the heavy chain (limits as in the source). Parent: GFTLNSYGIS, VIYSDGRRTFYGDSVK, GRAAGTFDS. Affinities are written as log10 Kd with Kd in nM; a lower number is a better binder. Replicates are averaged; those with no signal do not enter the mean. Where no diploid with the target was found in any replicate, the entry reads "not detected": below detection, most likely a poor binder, though not proof of it.

| log10 Kd (nM), mean | replicates with signal | CDR-H1 | CDR-H2 | CDR-H3 |
|---|---|---|---|---|
| -0.25 | 6/6 | GFDLNEYGIS | VIYADGQRTAYADDVK | GEVAGTFDL |
| not detected | 0/6 | GFQLDEVGIS | VIYADGIRRAYKSKVK | GGNGGSFDI |
| not detected | 0/6 | GFWLNDYGIS | VIYSDGRRTFYKDSVK | GRTAGTFDT |
| 1.39 | 2/6 | GFQLNSYGIS | VIYSDGRRTMYQDSVK | GQAAGTFDS |
| 0.56 | 6/6 | GFQLNEYGIS | VIYSDGRRTFYADSVK | GRAAGTFDK |
| 1.04 | 4/6 | GFELNMYGIS | VIYSDGRRTFYGDSVK | GKTAGTFDS |
| 0.74 | 6/6 | GFNLNSYGIS | VIYSDGRRTFYIDSVK | GEAAGTFDS |
| not detected | 0/6 | GFTLNSYGIS | VIYSDGRRTFYGDSVK | GQAAGQFDS |
| 1.22 | 6/6 | GFSLNSYGIS | VIYSDGRRTFYTDSVK | GKQAGTFDS |
| -0.21 | 6/6 | GFTLNSYGIS | VIYSDGRRTFYSDSVK | GQEAGTFDT |
| not detected | 0/6 | GFELNSYGIS | VIYSDGRRTFYVDMVK | GQTAGTFDS |
| not detected | 0/6 | GFALNSYGIS | VIYSDGRRTFYGDSVK | RRAAGTFDS |
| 0.68 | 1/6 | GFDLNEYGIS | VIYADGKKTAFVNTVK | GELGGNIDD |
| -0.08 | 6/6 | GFDLDEYGIS | VIYADGMRTFYTDSVK | GENAGTFDV |
| 0.03 | 6/6 | GFDLDEYGIS | VIYADGMRTAYSDSVK | GNVAGTFDA |
| -0.42 | 6/6 | GFNLDEYGIS | VIYADGVRTAYADSVK | GEVAGTFDV |
| -0.36 | 6/6 | GFDLNEYGIS | VIYADGMRTAYADSVK | GNAAGTFDL |
| 2.67 | 1/6 | GQDLAEYGIS | VIYADGKRTMYANDVK | GHNDGQGKT |
| not detected | 0/6 | GFNLNSYGIS | VIYSDGRRTEYGDEVK | GRGAGTFDM |
| not detected | 0/6 | GFDLDEYGIS | VIYADGSRTAYADDVK | GNNAGTFDV |
| -0.71 | 6/6 | GFDLDEYGIS | VIYADGVRTAYADSVK | GNVAGTFDA |
| not detected | 0/6 | GFTLRSYGIS | VIYSDGRRTFYGDSVK | GRQASTIDS |
| not detected | 0/6 | GFTLNDYGIS | VIYSDGRRTFYGDSVK | GRAAGTFRD |
| 1.14 | 5/6 | GFWLNEYGIS | VIYSDGRRTFYGDSVK | GRAAGTFDV |
| 0.31 | 6/6 | GFELNSYGIS | VIYSDGRRTFYADQVK | GWTAGTFDS |
| 1.19 | 3/6 | GETLNEYGIS | VIYSDGRRTFYTDSVK | GRFAGTFDS |
| -0.21 | 6/6 | GFDLNEYGIS | VIYADGVRTFYADSVK | GETAGTFDV |
| 1.31 | 6/6 | GFSLNSYGIS | VIYSDGRRTFYGDQVK | GRIAGTFDS |
| -0.64 | 6/6 | GFDLNEYGIS | VIYADGRRTFYSDSVK | GELAGTFDS |
| 0.06 | 6/6 | GFDLNEYGIS | VIYADGRRTFYSDSVK | GSNGGTFDM |
| 0.19 | 5/6 | GFQLNEYGIS | VIYSDGRRTFYVDSVK | GRTAGTFDS |
| -0.65 | 6/6 | GFDLDEYGIS | VIYADGKRSYYADSVK | GNVAGTFDV |
| 1.58 | 1/6 | KFKLNSYGIS | VIYSDGKRTFYGDSVK | GRTAGTFDS |
| not detected | 0/6 | GFDLEEYGIS | VIYADGLRSYYADNFK | GWNSGTIFV |
| 0.03 | 6/6 | GFTLNSYGIS | VIYADGRRTFYGDSVK | GRAAGTFDI |
| 1.48 | 6/6 | GFTLNDYGIS | VIYSDGRRMMYIDSVK | GRAAGTFDS |
| -0.22 | 6/6 | GFDLNEYGIS | VIYADGQRTFYADSVK | GESAGTFDQ |
| -0.42 | 6/6 | GFDLNEYGIS | VIYADGMRKAYADSVK | GNEAGTFDV |
| 0.08 | 6/6 | GFDLDEYGIS | VIYADGMRTAYADKVK | GGNAGTFDV |
| not detected | 0/6 | GPNLQEYGIS | VIYADGIRTAYKDSVK | GQVAGYFPF |
| not detected | 0/6 | GFDLNSYGIS | VIYSDGRRTFYIDSVK | GRAAVTFDS |
| 0.99 | 6/6 | GFTLNSYGIS | VIYSDGQRTFYGDDVK | GRTAGTFDS |
| -0.71 | 6/6 | GFDLNEYGIS | VIYADGRRTFYTDSVK | GQNAGTFDS |
| 0.68 | 6/6 | GFDLNSYGIS | VIYSDGRRTFYADSVK | GREAGTFDN |
| -0.14 | 6/6 | GFDLNEYGIS | VIYADGHRTFYSDSVK | GQSAGTFDI |
| 0.63 | 6/6 | GFQLNSYGIS | VIYSDGMRTFYSDNVK | GRTAGTFDS |
| 0.25 | 6/6 | GFQLNEYGIS | VIYSDGRRTFYGDSVK | GRQAGTFDT |
| not detected | 0/6 | GFTLNEYGIS | VIYSDGRRTFYGDSVK | GRAAETFDE |
| 0.24 | 6/6 | GFDLNEYGIS | VIYADGKRTAYADSVK | GQVAGTFDI |
| 1.57 | 1/6 | GFTLNSYGIS | VIYSDGLRTFYGDSVK | GRAAFTFDS |
| 1.40 | 1/6 | GFDLNEYGIS | VIYADGSRQMYANNVK | DHMGGMKLV |
| 0.97 | 1/6 | GETLNSYGIS | VIYSDGRRTFYSDSVK | GRAAGEFKS |
| 1.65 | 6/6 | GQDLEEYGIS | VIYADGMRAAYANNVK | GVKGINVTI |
| not detected | 0/6 | GFTSNQYGIS | VIYSFGRRTFYSDSVK | GRAAGFFDS |
| 0.34 | 6/6 | GFSLNSYGIS | VIYSDGRRTFYADNVK | GRQAGTFDS |
| -0.12 | 6/6 | GFDINEYGIS | VIYADGRRTQYADSVK | GEVAGTFDS |
| not detected | 0/6 | GFDLNEYGIS | VIYADGRRTAYSDSVK | GNNAGFFDS |
| 0.78 | 6/6 | GFTLNSYGIH | VIYSDGRRTFYGDSVK | GDAAGTFDS |
| 1.94 | 4/6 | GFNLNSYGIS | VIYSDGRRTFYGDSVK | GRAAGTFDY |
| 2.32 | 6/6 | GFDLNSYGIS | VIYSDGMRTFYVDSVK | GRSAGTFDS |
| 1.27 | 6/6 | KFQLNEYGIS | VIYSDGRRTFYGDSVK | GRTAGTFDT |

The 10 strongest on average among those seen in every replicate, once more:

CDR-H1	CDR-H2	CDR-H3	log10 Kd (nM), mean	replicates with signal
GFDLNEYGIS	VIYADGRRTFYTDSVK	GQNAGTFDS	-0.71	6/6
GFDLDEYGIS	VIYADGVRTAYADSVK	GNVAGTFDA	-0.71	6/6
GFDLDEYGIS	VIYADGKRSYYADSVK	GNVAGTFDV	-0.65	6/6
GFDLNEYGIS	VIYADGRRTFYSDSVK	GELAGTFDS	-0.64	6/6
GFDLNEYGIS	VIYADGMRKAYADSVK	GNEAGTFDV	-0.42	6/6
GFNLDEYGIS	VIYADGVRTAYADSVK	GEVAGTFDV	-0.42	6/6
GFDLNEYGIS	VIYADGMRTAYADSVK	GNAAGTFDL	-0.36	6/6
GFDLNEYGIS	VIYADGQRTAYADDVK	GEVAGTFDL	-0.25	6/6
GFDLNEYGIS	VIYADGQRTFYADSVK	GESAGTFDQ	-0.22	6/6
GFTLNSYGIS	VIYSDGRRTFYSDSVK	GQEAGTFDT	-0.21	6/6

The parent sequence was in this pool as ten entries: three were never detected, three once, and four in most replicates, with averages from 0.34 to 2.37. A sequence measured in both rounds can read differently, since the two assays cover different ranges. The authors' rule: three or more of the six replicates give a measured affinity, fewer mean a poor binder. Nonspecific signal, from three strains lacking the peptide, appeared in 1% of pairings of all heavy chain designs, centred on 2.08 (5% of these signals below 0.84); values are not corrected for it.

The measurements come from Li et al. 2023 (doi:10.1038/s41467-023-39022-2) through the FLAb antibody collection.